This passage reports Ki results from ChEMBL document CHEMBL1125663, “Function of negative charge in the "address domain" of deltorphins” (J Med Chem, 1991).

Sequences of proteins named here, by UniProt entry; tags and fusion partners are left off.
UniProt P33535, whole entry: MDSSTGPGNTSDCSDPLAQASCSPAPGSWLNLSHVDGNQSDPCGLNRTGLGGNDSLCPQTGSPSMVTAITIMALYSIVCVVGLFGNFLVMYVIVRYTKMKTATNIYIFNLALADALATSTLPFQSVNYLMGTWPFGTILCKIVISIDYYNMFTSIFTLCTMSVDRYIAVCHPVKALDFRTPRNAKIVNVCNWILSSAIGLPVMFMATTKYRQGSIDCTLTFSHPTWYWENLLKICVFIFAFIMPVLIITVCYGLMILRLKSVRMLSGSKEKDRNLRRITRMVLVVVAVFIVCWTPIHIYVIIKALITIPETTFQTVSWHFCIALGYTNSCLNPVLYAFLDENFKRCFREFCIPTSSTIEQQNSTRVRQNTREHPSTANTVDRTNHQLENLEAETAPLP

The assay concerns the target Mu-type opioid receptor (Rattus norvegicus, UniProt P33535). Kind of assay: Binding affinity against Opioid receptor mu 1 in P2 membrane preparation of rat brain by [3H]DAGO displacement. Type of assay: cell membranes.

In the case of `C[C@@H](NC(=O)[C@@H](N)Cc1ccc(O)cc1)C(=O)NCC(=O)N(C)[C@@H](Cc1ccccc1)C(=O)NCCO` [DAMGO], affinity was put at a Ki of 0.66 nM.
